Assay in all cases: biochemical
Holding throughout (type): binding

One experiment addresses HLA-DR DRB1*0701 (DR7) (Homo sapiens, UniProt P01903+P01911, A100R/A102G/A103Q/D57E/D86V/E43K/F76Y/K127E/L162R/M171V/P40G/Q125H/Q99D/R33Q/R42Y/R54Q/S133A/S66F/T210M/V115G/Y107V/Y59L/Y89S). Particulars: DRB1 *0701.
The target of the next experiment is HLA-B*4403 (Homo sapiens, UniProt P01889, A223V/A65T/A93T/A95T/D201E/D98Y/E176V/E187L/E204Q/E69K/G107R/H137Y/K202T/L105A/L119I/N104T/N87E/Q56L/Q94N/R106L/R155S/R180L/S101N/S121R/S35A/S48T/T118I/V36M/W191S/Y140D/Y91S). Conditions: B*4403.
The target of another experiment is HLA-B*4402 (Homo sapiens, UniProt P01889, A223V/A65T/A93T/A95T/D201E/D98Y/E176V/E187L/E204Q/E69K/G107R/H137Y/K202T/L105A/L119I/N104T/N87E/Q56L/Q94N/R106L/R155S/R180D/S101N/S121R/S35A/S48T/T118I/V36M/W191S/Y140D/Y91S). Conditions: B*4402.
The target of the next experiment is HLA-B*1801 (Homo sapiens, UniProt P01889, A329T/A93T/A95T/C349S/D201E/D54G/D98Y/E176V/E187T/E204Q/E69T/K202T/Q94N/R155S/R180L/S121R/V306I/Y140S/Y195H/Y33H/Y91S). Conditions: B*1801.
In another experiment the target is HLA-B*4001 (Homo sapiens, UniProt P01889, A65T/A93T/A95T/D138N/D98Y/E176V/E69K/N87E/Q56L/Q94N/R180L/S121R/S35A/S48T/T167S/V36M/W171L/Y33H/Y91S). Particulars: B*4001.
The target of another experiment is HLA-B*4501 (Homo sapiens, UniProt P01889, A329T/A65T/A93T/A95T/C349S/D138N/D201E/D98Y/E176V/E187L/E204Q/E69K/H137Y/K202T/L119W/N87E/Q56L/Q94N/R155S/R180D/S121R/S35A/S48T/V127L/V306I/V36M/W191S/Y140L/Y33H/Y91S). Conditions: B*4501.
Another experiment deals with HLA-B*4002 (Homo sapiens, UniProt P01889, A65T/A93T/A95T/D138N/D201E/D98Y/E176V/E204Q/E69K/K202T/N87E/Q56L/Q94N/R180L/S48T/Y33H/Y91S). Conditions: B*4002.

Experimental findings from patent US20060079453A1, “Hla binding peptides and their uses” (priority 2002, published 2006) are described below.

Molecules are shown by their SMILES.

For orientation: IC50 means the midpoint of a concentration-inhibition curve. The low end stands for inhibition by little substance, the high end for a need for much substance. `CC(=O)N[C@@H](C)C(=O)N[C@@H](CO)C(=O)N[C@@H](CCC(N)=O)C(=O)N[C@@H](CCCCN)C(=O)N[C@@H](CCCNC(=N)N)C(=O)N1CCC[C@H]1C(=O)N[C@@H](CO)C(=O)N[C@@H](CCC(N)=O)C(=O)N[C@@H](CCCNC(=N)N)C(=O)N[C@@H](Cc1c[nH]cn1)C(=O)NCC(=O)N[C@@H](CO)C(=O)N[C@@H](CCCCN)C(=O)N[C@@H](Cc1ccc(O)cc1)C(=O)N[C@@H](CC(C)C)C(=O)N[C@@H](C)C(=O)N[C@H](C(=O)N[C@@H](C)C(=O)N[C@@H](CO)C(=O)N[C@H](C(=O)O)[C@@H](C)O)[C@@H](C)O` registered an IC50 at HLA-DR DRB1*0701 (DR7) of 2360 nM.

As for `CC[C@H](C)[C@H](NC(=O)[C@H](CCC(=O)O)NC(=O)[C@@H]1CCCN1C(=O)[C@H](CCC(=O)O)NC(=O)[C@@H](N)CS)C(=O)N[C@@H](CCC(N)=O)C(=O)N[C@@H](CC(N)=O)C(=O)N[C@H](C(=O)N[C@H](C(=O)N[C@@H](Cc1ccc(O)cc1)C(=O)N[C@@H](CC(C)C)C(=O)N[C@@H](Cc1c[nH]c2ccccc12)C(=O)N[C@@H](Cc1c[nH]c2ccccc12)C(=O)O)[C@@H](C)O)[C@@H](C)O`, the IC50 on HLA-B*4403 was found to be 409 nM; at HLA-B*4402, 7.9 nM; against HLA-B*1801, 84 nM; against HLA-B*4001, 858 nM; on HLA-B*4501 it was 1240 nM; at HLA-B*4002, 3170 nM.

At HLA-DR DRB1*0701 (DR7), `CC[C@H](C)[C@H](NC(=O)[C@H](Cc1ccc(O)cc1)NC(=O)[C@@H]1CCCN1C(=O)[C@H](CC(=O)O)NC(=O)[C@H](CCC(=O)O)NC(=O)[C@H](CC(C)C)NC(=O)[C@@H](NC(=O)[C@H](C)NC(=O)[C@@H](N)CCC(=O)O)C(C)C)C(=O)N[C@@H](CC(C)C)C(=O)N[C@@H](CC(C)C)C(=O)N[C@H](C(=O)N[C@@H](CO)C(=O)N[C@@H](CO)C(=O)N[C@@H](CCCCN)C(=O)O)C(C)C` came in with an IC50 of 933 nM. In other words, the sub-micromolar range.

As to `CC(C)C[C@H](NC(=O)[C@H](C)NC(=O)[C@H](Cc1ccc(O)cc1)NC(=O)[C@H](CC(N)=O)NC(=O)[C@H](CC(=O)O)NC(=O)[C@H](CCC(=O)O)NC(=O)[C@@H](N)Cc1ccccc1)C(=O)N[C@@H](C)C(=O)N[C@H](C(=O)O)C(C)C`, the IC50 came out at 0.17 nM at HLA-B*4403; 13500 nM on HLA-B*4402; 12 nM against HLA-B*1801; 34 nM on HLA-B*4001; 131 nM at HLA-B*4501; 5.1 nM at HLA-B*4002.

In the case of `CC(C)C[C@H](NC(=O)[C@H](Cc1ccccc1)NC(=O)[C@H](CC(N)=O)NC(=O)[C@H](CO)NC(=O)[C@@H](N)CCCCN)C(=O)N[C@@H](CC(N)=O)C(=O)N[C@@H](CS)C(=O)N[C@@H](Cc1ccc(O)cc1)C(=O)N[C@H](C(=O)N[C@@H](CO)C(=O)NCC(=O)N[C@@H](Cc1ccccc1)C(=O)N[C@@H](Cc1c[nH]cn1)C(=O)N1CCC[C@H]1C(=O)N[C@@H](CO)C(=O)N[C@@H](CC(=O)O)C(=O)O)C(C)C`, it took 8330 nM to reach half-maximal inhibition against HLA-DR DRB1*0701 (DR7) (IC50).

`CC[C@H](C)[C@H](NC(=O)[C@H](Cc1ccc(O)cc1)NC(=O)[C@H](CC(C)C)NC(=O)[C@H](Cc1ccc(O)cc1)NC(=O)CNC(=O)[C@@H](NC(=O)[C@@H](NC(=O)[C@H](CCC(=O)O)NC(=O)[C@H](CCC(=O)O)NC(=O)[C@@H](N)CC(C)C)[C@@H](C)CC)[C@@H](C)O)C(=O)N[C@@H](CO)C(=O)N[C@@H](C)C(=O)O`: the IC50 amounted to 18 nM on HLA-B*4403; 209 nM against HLA-B*1801; 28 nM against HLA-B*4001; 694 nM against HLA-B*4501; 31 nM on HLA-B*4002.

Consider `CC(C)C[C@H](NC(=O)[C@H](CO)NC(=O)[C@H](C)NC(=O)[C@H](CC(N)=O)NC(=O)[C@@H](NC(=O)[C@@H]1CCCN1C(=O)[C@H](CC(C)C)NC(=O)[C@H](Cc1ccc(O)cc1)NC(=O)[C@@H](NC(=O)[C@H](CC(C)C)NC(=O)[C@H](CCC(=O)O)NC(=O)[C@@H](N)CC(C)C)[C@@H](C)O)[C@@H](C)O)C(=O)O`, for which the IC50 at HLA-B*4403 was determined as 6.8 nM; against HLA-B*4402, 386 nM; against HLA-B*1801, 12 nM; on HLA-B*4001, 25 nM; on HLA-B*4501, 11 nM; against HLA-B*4002, 102 nM.

In turn, `CC[C@H](C)[C@H](NC(=O)[C@@H](N)CC(C)C)C(=O)N[C@@H](CCSC)C(=O)N[C@@H](Cc1ccc(O)cc1)C(=O)N[C@@H](CO)C(=O)N[C@@H](C)C(=O)N[C@@H](Cc1c[nH]cn1)C(=O)N[C@@H](CC(=O)O)C(=O)N[C@H](C(=O)N[C@H](C(=O)N[C@H](C(=O)N[C@@H](CO)C(=O)NCC(=O)N[C@@H](CC(C)C)C(=O)N[C@@H](CCC(N)=O)C(=O)O)C(C)C)[C@@H](C)O)[C@@H](C)O` registered an IC50 at HLA-DR DRB1*0701 (DR7) of 731 nM.

In turn, `CSCC[C@H](NC(=O)[C@H](CCC(=O)O)NC(=O)[C@@H](NC(=O)[C@H](Cc1ccccc1)NC(=O)[C@H](Cc1ccc(O)cc1)NC(=O)[C@H](CCC(=O)O)NC(=O)CNC(=O)[C@H](CCCCN)NC(=O)[C@H](CCC(=O)O)NC(=O)[C@H](Cc1ccccc1)NC(=O)[C@H](Cc1ccc(O)cc1)NC(=O)[C@H](CC(C)C)NC(=O)[C@H](CCC(=O)O)NC(=O)[C@@H](NC(=O)[C@@H](N)CC(C)C)[C@@H](C)O)C(C)C)C(=O)O` displayed an IC50 against HLA-DR DRB1*0701 (DR7) of 13100 nM.

As to `CC[C@H](C)[C@H](NC(=O)[C@H](CCC(=O)O)NC(=O)[C@H](CCCCN)NC(=O)[C@H](CC(N)=O)NC(=O)[C@H](C)NC(=O)[C@H](CCCCN)NC(=O)[C@@H]1CCCN1C(=O)[C@H](CO)NC(=O)[C@@H](NC(=O)[C@H](CC(N)=O)NC(=O)[C@H](CCC(=O)O)NC(=O)[C@@H](N)CCCNC(=N)N)[C@@H](C)O)C(=O)N[C@@H](CC(C)C)C(=O)O`, the IC50 on HLA-B*4403 is 3.9 nM; at HLA-B*4402, greater than 2540 nM; against HLA-B*1801, 7750 nM; against HLA-B*4001 it was 3.7 nM; against HLA-B*4501, 1510 nM; against HLA-B*4002, 77 nM.

Regarding `CC[C@H](C)[C@H](NC(=O)[C@H](CC(=O)O)NC(=O)[C@H](CC(=O)O)NC(=O)[C@H](CC(C)C)NC(=O)CNC(=O)[C@H](CC(C)C)NC(=O)[C@@H](NC(=O)[C@H](CO)NC(=O)[C@H](C)NC(=O)CNC(=O)[C@H](CC(C)C)NC(=O)[C@H](CC(C)C)NC(=O)CNC(=O)[C@@H]1CCCN1C(=O)[C@@H](N)CCCNC(=N)N)C(C)C)C(=O)O`, the 50% inhibitory concentration (IC50) against HLA-DR DRB1*0701 (DR7) was 506 nM.

Turning to `CC[C@H](C)[C@H](NC(=O)CNC(=O)[C@H](Cc1ccccc1)NC(=O)[C@@H](NC(=O)[C@H](CC(C)C)NC(=O)[C@H](CCC(N)=O)NC(=O)[C@H](CC(C)C)NC(=O)[C@H](Cc1ccc(O)cc1)NC(=O)[C@H](CCC(=O)O)NC(=O)[C@@H](N)CO)C(C)C)C(=O)N[C@@H](CCC(=O)O)C(=O)N[C@H](C(=O)N[C@H](C(=O)O)C(C)C)C(C)C`, the concentration for half-maximal inhibition (IC50) against HLA-B*4403 worked out at 5.4 nM; on HLA-B*4402, 144 nM; at HLA-B*1801 it was 9.7 nM; against HLA-B*4001, 23 nM; on HLA-B*4501, 6.6 nM; at HLA-B*4002, 4.5 nM.

As for `CC(C)C[C@H](NC(=O)[C@H](CCCCN)NC(=O)[C@H](Cc1c[nH]cn1)NC(=O)[C@H](CC(C)C)NC(=O)[C@H](CCC(=O)O)NC(=O)[C@H](CCC(N)=O)NC(=O)[C@H](CO)NC(=O)[C@H](CC(C)C)NC(=O)[C@H](CCCCN)NC(=O)CNC(=O)[C@H](CC(C)C)NC(=O)[C@@H](NC(=O)[C@@H](NC(=O)[C@@H](N)[C@@H](C)O)[C@@H](C)O)C(C)C)C(=O)N[C@@H](CCC(N)=O)C(=O)O`, at HLA-DR DRB1*0701 (DR7), the IC50 is 26100 nM.

For the molecule `CSCC[C@H](NC(=O)[C@H](CC(C)C)NC(=O)[C@H](CCC(N)=O)NC(=O)[C@H](CC(=O)O)NC(=O)[C@H](CC(N)=O)NC(=O)[C@H](CCSC)NC(=O)[C@H](CCSC)NC(=O)[C@H](CCCNC(=N)N)NC(=O)[C@H](CC(C)C)NC(=O)[C@@H](N)C(C)C)C(=O)N[C@@H](Cc1ccccc1)C(=O)N[C@@H](CC(C)C)C(=O)N[C@@H](CCC(=O)O)C(=O)N[C@@H](CCCNC(=N)N)C(=O)N[C@@H](C)C(=O)O`, at HLA-DR DRB1*0701 (DR7), the IC50 is 17300 nM.

`CC(C)C[C@H](NC(=O)CNC(=O)[C@H](Cc1ccccc1)NC(=O)[C@H](CCC(=O)O)NC(=O)[C@H](CCCCN)NC(=O)[C@@H](N)Cc1c[nH]c2ccccc12)C(=O)N[C@@H](CC(=O)O)C(=O)N[C@@H](CO)C(=O)N[C@H](C(=O)N[C@@H](CCC(=O)O)C(=O)N[C@@H](CC(C)C)C(=O)N[C@@H](C)C(=O)N[C@@H](Cc1c[nH]cn1)C(=O)N[C@@H](Cc1ccc(O)cc1)C(=O)N[C@@H](CC(=O)O)C(=O)O)C(C)C` registered an IC50 against HLA-DR DRB1*0701 (DR7) of 3510 nM.
